In this assay the test system is UQ-deficient cells (Mclk1 KO or DKO cells). The experiment in a line: Screening for compounds that increase survival or respiration of UQ-deficient cells.

Turning to `C[C@@H]1C[C@H]2[C@@H]3C[C@H](F)C4=CC(=O)C=C[C@]4(C)[C@@]3(F)[C@@H](O)C[C@]2(C)[C@@]1(O)C(=O)CO` [flumethasone], the “identified by the screening methods as useful for UQ deficiency” value is “identified”.

Values taken from patent US12053441B2, “Formulations for improving the delivery of hydrophobic agents” (THE ROYAL INSTITUTION FOR THE ADVANCEMENT OF LEARNING / …, priority 2018, dated 2024).
